Measured affinities in a library of Ab-95 light chain variants

Antigen: PDVDLGDISGINAS, a 14-residue peptide of the SARS-CoV-2 spike HR2 region.

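The parent was found by panning a naive human phage display library on the peptide. AAYL52 was designed without a model: most single CDR substitutions and a random sample of double and triple ones. In AlphaSeq, yeast of one mating type display the scFv and yeast of the other type display the target. After mating in shaken culture at 30 °C for 16 h, diploids were selected and their barcode pairs sequenced. Read counts were normalised to the haploid input and turned into Kd by a linear fit to BCL2-family pairs of known affinity, for each replicate. Each pool was mated in three replicate cultures.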

Ab-95 is the parent antibody, in scFv form: VH, then a (GGGGS)3 linker, then VL. The heavy chain is unchanged in all variants.
VH: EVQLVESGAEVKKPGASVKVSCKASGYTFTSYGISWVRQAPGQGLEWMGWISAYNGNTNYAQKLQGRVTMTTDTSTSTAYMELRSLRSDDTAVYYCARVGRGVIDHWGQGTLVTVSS
VL: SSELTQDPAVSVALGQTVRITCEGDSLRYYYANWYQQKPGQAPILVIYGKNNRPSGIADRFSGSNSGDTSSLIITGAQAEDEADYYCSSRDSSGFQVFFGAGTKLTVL

Changes read parent residue, position, new residue, counted from the first residue of the VL shown. Scale: log10 of Kd in nM, estimated from mating counts; low values are strong binders. Replicates are averaged; those with no signal do not enter the mean. Where no diploid with the target was found in that replicate, the entry reads "nd": below detection, most likely a poor binder, though not proof of it.

| changes | replicates, log10 nM | mean, log10 nM | control signals |
|---|---|---|---|
| E23R+Y29L+Y31F | 2.92 3.06 2.68 | 2.89 | 7/9 (4.29) |
| Y29G+Y31R+N51V | 3.11 3.31 4.37 | 3.60 | 2/9 (4.22) |
| D91T+F95N | 3.98 3.27 nd | 3.62 | 2/9 (4.50) |
| R28N+P54K+S88N | nd nd nd | nd | 1/9 (3.48) |
| A32K+P54V+S89P | 3.91 nd nd | 3.91 | 0/9 |
| S26C+N52C+R53Y | 3.77 nd nd | 3.77 | 1/9 (4.30) |
| G24I+L27C | 2.47 2.63 2.06 | 2.39 | 3/9 (4.19) |
| A32D+G94L+F95W | 4.50 5.44 nd | 4.97 | 1/9 (4.45) |
| S26D+R28M+S92C | 3.94 5.09 4.48 | 4.50 | 1/9 (4.62) |
| E23K+N52C+R53G | 3.31 4.26 nd | 3.78 | 1/9 (4.33) |
| N52C+S89Y | 4.25 5.66 nd | 4.96 | 3/9 (4.44) |
| L27E+R90T+S92T | nd nd nd | nd | 1/9 (4.14) |
| R28A+R90G+D91P | 2.91 3.49 3.00 | 3.14 | 4/9 (4.23) |
| A32S+S89E+R90N | nd nd nd | nd | 0/9 |
| G24R+S89H | nd nd 3.12 | 3.12 | 0/9 |
| E23T+G24H+S26V | nd 3.30 nd | 3.30 | 2/9 (4.40) |
| E23W+Y30T+N51W | 3.17 3.20 3.13 | 3.17 | 5/9 (3.96) |
| E23L+Y29K+Y30A | 1.33 1.22 0.88 | 1.14 | 3/9 (3.74) |
| G24S+Y30C+R90I | 3.75 3.25 2.44 | 3.14 | 2/9 (3.72) |
| K50H+S92W+S93N | 3.33 3.16 nd | 3.24 | 0/9 |
| S26W+L27V+F98A | 3.14 2.77 2.68 | 2.86 | 2/9 (4.50) |
| E23K+D25C+V97L | nd 3.54 nd | 3.54 | 3/9 (3.69) |
| N52R+S88P | 4.11 3.50 3.62 | 3.74 | 6/9 (3.85) |
| Y31V+R90T+S92T | 3.32 nd nd | 3.32 | 1/9 (4.29) |
| S26W+Y31N+S88W | 3.95 nd 4.10 | 4.02 | 2/9 (4.20) |
| L27A+R28I+V97I | nd 3.91 nd | 3.91 | 3/9 (3.77) |
| N33H+N51E+F95G | 2.43 3.36 2.04 | 2.61 | 0/9 |
| E23L+S89D+S92W | 4.40 nd nd | 4.40 | 4/9 (4.00) |
| D25M+S26Y+Y31N | 2.93 2.39 2.19 | 2.50 | 3/9 (4.23) |
| E23R+R53S+S89F | 1.96 1.98 1.56 | 1.83 | 4/9 (3.91) |
| N52A+P54R+V97D | nd nd nd | nd | 0/9 |
| K50Y+S55I | 3.31 3.66 3.56 | 3.51 | 1/9 (4.57) |
| A32Y+R53C+S89R | nd 3.86 nd | 3.86 | 3/9 (3.65) |
| N52V+R53P+F95Y | 3.56 4.12 3.73 | 3.80 | 5/9 (4.31) |
| Y31M+S89T+F98H | 2.76 2.75 1.95 | 2.49 | 2/9 (3.80) |
| Y30H+N33Y | 1.77 1.61 1.68 | 1.69 | 1/9 (3.62) |
| Y31F+N52M+S93H | 2.45 2.38 2.23 | 2.35 | 7/9 (3.67) |
| N33A+N51F+S55R | nd nd nd | nd | 1/9 (2.50) |
| E23I+N33A+P54T | nd nd nd | nd | 1/9 (4.08) |
| N33D+Q96V+F98V | nd 4.66 nd | 4.66 | 2/9 (4.02) |
| S26M+A32R+R90V | 3.81 nd 3.76 | 3.79 | 1/9 (2.97) |
| D25T+L27N+R28N | 2.83 2.58 2.45 | 2.62 | 4/9 (5.01) |
| S26A+G49V+D91R | 4.41 nd nd | 4.41 | 4/9 (3.54) |
| Y29G+S88P | 1.83 1.59 0.99 | 1.47 | 1/9 (3.06) |
| Y31P+P54L+S89E | 2.73 2.16 1.85 | 2.25 | 2/9 (3.55) |
| L27N+S55P+F98Y | 3.14 3.09 2.62 | 2.95 | 2/9 (3.47) |
| R28A+Y31H+N33D | 5.94 nd nd | 5.94 | 4/9 (4.70) |
| N33D+N52P+S89Q | 3.19 5.17 nd | 4.18 | 4/9 (3.53) |
| G24M+S88L+R90S | 4.12 2.86 4.30 | 3.76 | 4/9 (4.03) |
| E23H+S88C+Q96R | 3.32 2.72 3.50 | 3.18 | 0/9 |
| S89C+G94W+F98A | 2.76 2.59 1.97 | 2.44 | 5/9 (3.70) |

Background: pairings of library AAYL52 with three empty control strains gave a value in 28% of cases (median 3.91, 5th percentile 2.90). Values in that range, when seen in few replicates, are hard to tell from nonspecific mating. Also given: how often the same scFv was detected with the empty control strains, with their mean in brackets.

Values reported by Engelhart et al. 2022, doi:10.1038/s41597-022-01779-4 (FLAb copy).